## Measured affinities in a library of Ab-95 light chain variants

Values reported by Engelhart et al. 2022, doi:10.1038/s41597-022-01779-4 (FLAb copy).

All variants were tested on one target, the spike HR2 peptide PDVDLGDISGINAS (SARS-CoV-2).

Each scFv is VH, a 15-residue (Gly4Ser)3 linker, VL, as in the parent Ab-95, and differs from it in the CDRs of the light chain only.
VH: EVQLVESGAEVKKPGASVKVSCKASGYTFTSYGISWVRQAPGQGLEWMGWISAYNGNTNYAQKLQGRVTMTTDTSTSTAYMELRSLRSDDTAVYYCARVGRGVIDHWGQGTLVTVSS
VL: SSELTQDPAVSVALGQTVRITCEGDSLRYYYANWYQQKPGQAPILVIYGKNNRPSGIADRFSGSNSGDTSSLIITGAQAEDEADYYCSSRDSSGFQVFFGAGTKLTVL

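Phage display of a naive human antibody library on the peptide gave the parent. The library (AAYL52) carries one to three amino acid substitutions per variant, with no insertions or deletions. The assay is AlphaSeq: two haploid yeast populations carry antibody and antigen on their surface. Binding brings cells together so that they mate, and sequencing counts the barcode pairs among the diploids. Scores were corrected for input abundance and mapped to Kd with protein pairs of known affinity run in the same pool. Each pool was mated in three replicate cultures.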

Substitutions are numbered in sequence along the VL above, starting at 1 (not Kabat).
This list gathers variants with a substitution at N51 (VL, numbered from residue 1).
Each Kd is an estimate from the mating assay, the geometric mean of the replicates in which the pair was seen; lower is stronger.
"nd" means that the variant was in the library but no mating with the target was seen in any replicate; the authors take this as a sign of poor binding, and no number exists.
For reference, the parent read 200 nM as the reference entry and 180 nM as a member of this library.
Background: pairings of library AAYL52 with three empty control strains gave a value in 28% of cases (median 8.2 µM, 5th percentile 800 nM). Values in that range, when seen in few replicates, are hard to tell from nonspecific mating. For each scFv, signals with the empty controls are counted beside the result.

changes	Kd (apparent)	detected	signal with controls
N51T P54H V97I	nd	0/3	1/9
K50T N51T R53I	12 µM	1/3	4/9
E23N N51E R53N	1.6 µM	1/3	0/9
Y31I N51C	23 µM	1/3	3/9
N33S N51W P54Q	6.0 µM	2/3	2/9
N51M N52W	8.1 µM	1/3	1/9
E23Q N33A N51A	2.6 µM	3/3	5/9
D25A Y29L N51H	2.0 µM	3/3	6/9
Y31Q G49K N51T	2.1 µM	2/3	4/9
Y30E N51G P54S	28 nM	3/3	8/9
N51P R53Q	70 µM	2/3	4/9
K50M N51A	3.1 µM	2/3	3/9
Y29R Y31F N51T	3.0 µM	2/3	1/9
N33A K50W N51P	33 µM	3/3	2/9
N51K P54C S88N	27 µM	2/3	4/9
E23T Y31N N51A	5.9 nM	3/3	4/9
Y30P N51Q S88N	1.0 µM	3/3	0/9
N51Y R53C D91M	2.4 µM	1/3	4/9
L27A K50D N51L	890 nM	3/3	1/9
N51M R53G S55F	50 µM	2/3	5/9
G24H D25R N51V	nd	0/3	6/9
N51W N52G S55Q	3.5 µM	1/3	1/9
Y30W N51F S92E	16 µM	2/3	3/9
N51L R53G F98W	nd	0/3	0/9
R28L N51L N52D	26 µM	3/3	1/9
A32L N51H S93K	630 µM	1/3	3/9
E23A Y31N N51C	330 nM	3/3	2/9
R28P N51G S93H	110 nM	3/3	3/9
N51D N52S S89H	1.0 µM	3/3	3/9
K50L N51S S55C	nd	0/3	1/9
Y29M N33D N51W	9.5 µM	1/3	3/9
S26I N51R S88L	nd	0/3	2/9
N51Y N52L F98H	6.2 µM	2/3	5/9
Y30K N51P F98H	110 µM	2/3	5/9
L27I G49K N51W	13 µM	1/3	3/9
A32F N51K F98W	220 µM	1/3	1/9
N51R S55H D91I	6.8 µM	2/3	2/9
Y31W N51Y N52A	3.1 µM	2/3	6/9
A32S N51E N52I	2.4 µM	1/3	2/9
R28W N51H	8.1 µM	2/3	4/9
R28N N51I F98L	2.5 µM	1/3	3/9
E23G N51H S93G	7.0 µM	3/3	5/9
N51K R53T	1.8 µM	1/3	0/9
A32Q N51H S93Q	470 nM	3/3	3/9
N51K R90T D91A	nd	0/3	3/9
N51E N52I	3.6 µM	3/3	3/9
G24N N51Y S55W	4.7 µM	2/3	5/9
N51T P54E R90C	19 µM	1/3	2/9
N51L V97C	12 µM	1/3	2/9
G24M G49V N51Y	13 µM	2/3	8/9
N51H D91T	nd	0/3	0/9
G49C N51Y V97K	nd	0/3	3/9
N51Q S55P	450 nM	3/3	1/9
N33I N51Y S93W	150 µM	2/3	5/9
K50P N51I Q96Y	11 µM	1/3	5/9